Reference: PubChem BioAssay AID770 (SRMLSC, 2007)
Only a part is listed here, and it is no random draw. The source made the active and inactive calls.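 How the source made its calls: active means growth inhibition above 90% in viable cell count at a single dose; inactive means growth inhibition below 90%.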

Assay: HT29 colon tumor cell growth inhibition, primary screen, imaging, high content imaging, 24 h, CellTiter-Glo (AID 770)
Settings: HT29 cell number by imaging, at 10 µM, stronger effect = higher value
In the case of `Cc1cccc(OCC(=O)OC2CN3CCC2CC3)c1` (configuration not stated), the growth inhibition is reported as inactive: -17.9%.
For `Cc1ccc(OCC(=O)OC2CN3CCC2CC3)cc1` (configuration not stated), the growth inhibition was inactive: -14.4%.
